# Measurements: patent US20260355225A1 (priority 2022, published 2026)
# Columns and labels:
# HIV-1 NL4-3 = assay: Antiviral assay against HIV-1 NL4-3, percentage of infected cells by immunofluorescence (Example 2)
# SARS-CoV-2 = assay: Antiviral assay, inhibition of virus-induced cytopathic effect (CPE) of SARS-CoV-2 by MTT assay (Example 1)
smiles,measurement,setting,value
O=C[C@H](O)[C@@H](O)[C@H](O)CO [D-xylose],antiviral properties against HIV-NL4-3,HIV-1 NL4-3,confirmed
same,antiviral properties against SARS-CoV-2,SARS-CoV-2,confirmed
